We go through 3 compounds from patent US10766902B2.

Chains of the proteins cited; added tags and fusions are not shown.
UniProt P30291, whole entry: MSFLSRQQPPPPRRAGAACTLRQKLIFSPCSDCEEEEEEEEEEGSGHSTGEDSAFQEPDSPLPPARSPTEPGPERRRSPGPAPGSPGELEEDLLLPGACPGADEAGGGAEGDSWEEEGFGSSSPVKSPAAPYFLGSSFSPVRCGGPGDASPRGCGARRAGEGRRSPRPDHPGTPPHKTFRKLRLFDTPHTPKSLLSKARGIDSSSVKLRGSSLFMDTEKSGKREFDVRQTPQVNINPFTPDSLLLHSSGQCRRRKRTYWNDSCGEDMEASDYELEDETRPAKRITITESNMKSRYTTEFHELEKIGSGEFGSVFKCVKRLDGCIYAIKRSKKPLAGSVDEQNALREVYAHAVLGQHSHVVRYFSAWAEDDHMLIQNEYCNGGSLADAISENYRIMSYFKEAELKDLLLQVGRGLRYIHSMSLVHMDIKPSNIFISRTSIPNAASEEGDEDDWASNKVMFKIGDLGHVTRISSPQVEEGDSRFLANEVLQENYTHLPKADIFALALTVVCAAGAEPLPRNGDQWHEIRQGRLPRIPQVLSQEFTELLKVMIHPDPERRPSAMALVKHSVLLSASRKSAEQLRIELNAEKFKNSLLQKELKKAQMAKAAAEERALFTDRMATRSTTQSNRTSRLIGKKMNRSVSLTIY

Molecules are shown by their SMILES. Read-outs that look alike come from different tables or passages of the source.

The test system of one assay is A498 cells. Put plainly: Cell viability (CellTiter-Glo), A498. Type of assay: cell-based. The following applies: read-out: A498 EC50; cell viability after 6 days.
Another assay has as its system phosphorylation of CDC2. The settings on record: read-out: ELISA/nM; Table 5; reference US 2007/0254892; cited from earlier work. For orientation: ELISA stands for enzyme-linked immunosorbent assay.
A further assay deals with SK-LU-1 cells. Put plainly: Cell viability (CellTiter-Glo), SK-LU-1. Type of assay: cell-based. The settings on record: read-out: SK-LU-1 EC50; cell viability after 6 days. In general terms: Cellular ATP, detected with luciferase, serves as a proxy for viable cell number.
Assay [1] deals with phosphorylation of Cdc2 at Tyr15. The assay can be described thus: ELISA for phosphorylation of Cdc2 at Tyr15 in HT-29 / HCT-116 cells. Type of assay: cell-based, human.
A further assay deals with Wee-1 (Homo sapiens (Human), UniProt P30291). The settings on record: read-out: Wee-1/nM; Table 7; reference ACS Chem Biol 2016, 11, 921; cited from earlier work.

As to `C=CCn1c(=O)c2cnc(Nc3ccc(N4CCN(C)CC4)cc3)nc2n1-c1cccc(C(C)(C)O)n1`, the EC50 is 103 nM with A498 cells; 68 nM in the assay with phosphorylation of CDC2; 40 nM in the assay with SK-LU-1 cells; 66 nM in assay [1] (read-out: ELISA p-CDC2 EC50, Table 3); 67 nM in assay [1] (read-out: ELISA/nM, Table 5, data obtained as described in the experimental section of the current invention).
Regarding `C=CCn1c(=O)c2cnc(Nc3ccc(N4CCOCC4)cc3)nc2n1-c1cccc(C(C)(C)O)n1`, the IC50 at Wee-1 was 37.8 nM.
`C=CCn1c(=O)c2cnc(Nc3ccc(N(C)C)cc3)nc2n1-c1cccc(C(C)(C)O)n1`: the IC50 at Wee-1 was 42.8 nM.
